Target: ligand binding domain of human RORγ (A262-S507) (Homo sapiens (Human), UniProt P51449)
Assay: biochemical

Chains of the proteins cited; added tags and fusions are not shown. Residues count along the entry.
UniProt P51449, 262-507 limits assumed: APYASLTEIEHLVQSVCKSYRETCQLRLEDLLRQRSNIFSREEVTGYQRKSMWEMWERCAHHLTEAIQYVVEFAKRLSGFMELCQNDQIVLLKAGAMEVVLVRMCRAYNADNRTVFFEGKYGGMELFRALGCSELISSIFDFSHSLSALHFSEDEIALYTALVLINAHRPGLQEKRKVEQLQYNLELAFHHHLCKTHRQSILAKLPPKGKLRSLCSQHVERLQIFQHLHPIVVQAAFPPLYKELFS

IC50: 2630 nM
Compound: O=C(N1CCC(O)(C(F)(F)F)CC1)N1CCCC(c2ccc(C(OCc3c(F)cccc3F)(C(F)(F)F)C(F)(F)F)cc2)(S(=O)(=O)c2ccc(F)cc2)C1 (stereo not shown) [Example 2, (3-(4-(2-((2,6-difluorobenzyl)oxy)-1,1,1,3,3,3-hexafluoropropan-2-yl)phenyl)-3-((4-fluorophenyl)sulfonyl)piperidin-1-yl)(4-hydroxy-4-(trifluoromethyl)piperidin-1-yl)methanone]

Reference: patent US9637455B2, “Heterocyclic sulfone RORγ modulators” (BRISTOL-MYERS SQUIBB COMPANY, priority 2014, dated 2017)
